From patent US6809119B2, “Branched chain amino acid-dependent aminotransferase inhibitors and their use in the treatment of neurodegenerative diseases” (Warner-Lambert Company LLC, priority 2001, dated 2004) come the findings set out here.

Amino acid sequences for entries named in this document (tags omitted).
UniProt P54687, whole entry: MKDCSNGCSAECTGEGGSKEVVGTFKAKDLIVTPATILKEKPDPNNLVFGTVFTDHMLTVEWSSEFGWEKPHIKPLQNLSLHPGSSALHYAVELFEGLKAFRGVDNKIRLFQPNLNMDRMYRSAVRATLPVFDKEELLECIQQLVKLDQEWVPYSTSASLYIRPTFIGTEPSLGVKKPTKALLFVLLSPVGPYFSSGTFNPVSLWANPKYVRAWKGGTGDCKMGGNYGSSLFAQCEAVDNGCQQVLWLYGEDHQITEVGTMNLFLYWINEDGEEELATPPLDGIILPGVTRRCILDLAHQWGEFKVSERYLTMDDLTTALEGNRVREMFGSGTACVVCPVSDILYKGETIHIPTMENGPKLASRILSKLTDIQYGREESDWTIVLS

This assay concerns the target human Branched Chain Amino Acid Aminotransferase cytosolic form (hBCATc) (Homo sapiens, UniProt P54687). Briefly: In vitro coupled enzyme assay, human BCAT cytosolic form. Conditions: read-out: rhBCATc; inhibition of recombinant human BCATc; coupled glutamate dehydrogenase/NADH assay, 37° C., pH 7.8. As to the method:
In vitro enzyme assay: human Branched Chain Amino Acid Aminotransferase cytosolic form (hBCATc) and mitochondrial form (hBCATm) as well as rat BCAT cytosolic form were assayed at 37° C. in 25 mM phosphate buffer pH 7.8. In addition, 2 mM DTT and 12.5 mM EDTA were added to the assay mixture. A coupling enzyme assay was used to monitor the production of glutamate. The formation of NADH from NAD+at […] was followed on a 96-well plate Molecular Devices plate reader. The following components were used in this coupled assay: 4 mM ADP, 1 mM NAD+, 750 μM L-Leucine, 500 μM a-ketoglutarate, 10 μM pyridoxal phosphate, 1 unit glutamate dehydrogenase, and 1.25 μg of the appropriate BCAT enzyme. Inhibitions by compounds were assayed by adding various concentrations to this coupled assay procedure as a DMSO stock up to a 5% v/v DMSO/buffer ratio.
Enzyme Preparation: humanBCATc and ratBCATc were expressed in BL21(DE3) cells. A growing culture of cells was induced with 1 mM IPTG at room temperature overnight. These cells were harvested by centrifugation at 10,000 g for 20 minutes. The supernatant was discarded, and the cells were stored at −80° C. until needed. The protein was purified by the following method. […]

Each structure is given as a SMILES string.

Take `COc1ccc(S(=O)(=O)Nc2ccc(C(=O)NNS(=O)(=O)c3ccccc3)cc2)cc1OC`: the IC50 stood at 10 µM.
